Hits are enriched below; roughly 1.3% of the tested compounds scored in any of these assays.
PTHR1 agonist: agonists of human PTHR1 parathyroid hormone receptor. HEK293 GP2 PTHR1 cells, GloSensor cAMP luminescence, 1 h. Potency, µM (top dose mostly 115 µM), without a hit: at the top dose activation, actives largely listed as activators. Q03431. actives 0.075% (n = 410,000); note: potency is the fitted concentration of half-maximal effect; nearly all actives have a fitted effect of over 55% in size
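HEK-293-derived GP2 cells expressing PTHR1 and a GloSensor cAMP reporter, 3,000/well, plated overnight, given luciferin plus IBMX (each 0.5 mM as added) for 1 h at 37 °C, then compound for 1 h at 37 °C. Luminescence was read after 15 min at room temperature.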
PINK1 expr mod: modulators of PINK1 expression; Potency, µM (highest dose often 76.6 µM), without a hit: at the top dose activation (PINK1 increase), actives largely listed as activators; actives 0.2% (n = 410,000); PINK1 immunofluorescence, high-content cytometry, 24 h; active = well fitted activation curve with a large enough effect; inconclusive = small, poorly fitted or top-dose-only effect; cell line not stated here; note: potency is the fitted concentration of half-maximal effect; % of control where 0% means no effect; nearly all actives have a fitted effect of over 65% in size
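PINK1 protein level read as immunofluorescence by microplate cytometer in a fixed, stained stable cell line after 24 h exposure to five compound concentrations, with CCCP as control.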
ALOX12 inh: blocks human arachidonate 12S-lipoxygenase. P18054. purified 12hLO, xylenol orange hydroperoxide absorbance. Potency, µM (series often up to 108 µM), for inactives: at the highest dose activity change, negative = inhibition, most hits filed as inhibitors. actives 1.1% (n = 580,000). AID 1671190; note: potency is the fitted concentration of half-maximal effect; % is set by controls: 0 for no effect and ±100 for the full control effect
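Purified human 12hLO (150 nM final) in 25 mM Hepes, 0.01% Triton X-100, pH 7.0 was preincubated 15 min at room temperature with compound. Then 40 uM arachidonic acid was added, 30 min. Hydroperoxide was read by Fe-XO absorbance ratio 573/405 nm.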
miR-21 reporter: raises the signal of a miR-21 reporter; HeLa miR-21 FLuc reporter, luciferase, 48 h; Potency, µM (highest dose often 38.3 µM), inactives show at the highest dose reporter change, positive = more light; 340,000 tested, under 10 active; active = well fitted rising curve with a large enough effect; inconclusive = small, poorly fitted or top-dose-only effect; inactive = no such curve, though single readings can be large or run the other way;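 note: % of control where 0% means no effect; miR-21 action dims this reporter so a rising signal means less miR-21 action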
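HeLa cells endogenously expressing miR-21, stably carrying CMV-driven firefly luciferase with a downstream miR-21 binding site, 2000 cells/well. Titrations up to approximately 40 uM, 48 hours; luciferase luminescence read.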
ERG-DNA inh: inhibitors of human ERG Ets domain-DNA interaction. fluorescence polarization, His-ERG Ets domain / labelled DNA. Potency, µM (doses to about 76.9 µM), for the others: top-dose FP activity, negative = inhibition, actives largely listed as inhibitors. actives 0.028% (n = 370,000). AID 624246; active = well fitted inhibition curve with a large enough effect in the polarisation, with a control signal flat; inconclusive = small, poorly fitted or top-dose-only effect, or effect the other way, or a change in a side signal; inactive = no such curve, though single readings can be large or run the other way; the % refers to the polarisation;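 note: polarization taken with two DNA probes labelled with fluorescein and Texas red; potency is the fitted concentration of half-maximal effect; % of control where 0% means no effect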
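His-tagged ERG Ets domain (1 uM in the protein solution; 300mM KCl, 50mM Tris-HCl, 1mM EDTA, 1mM DTT, pH 7.5) received compound, then a probe mix of 5 nM fluorescein-DNA and 100nM Texas-615-DNA. Fluorescence polarization was read for both dyes.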
Giardia kill: Giardia lamblia killing; activity change, % at 7.66 µM, hits read low; Giardia lamblia trophozoite viability; actives 0.15% (n = 340,000); in the data active = activity change below about -80%; inconclusive = between about -30% and that limit;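 note: parasites exposed to compound for two days anaerobically before the ATP read; % is set by controls: 0 for no effect and ±100 for the full control effect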
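Giardia trophozoites, 100 cells per well, were exposed to compounds for 48 hrs at 37 deg C under anaerobic conditions; viability was then read as ATP content by bioluminescence after 15-30 min at room temperature.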
The depositor's hits bear a star; i = inactive; ? = inconclusive; . = no result given; ! = not active in a repeat; [ ] = another dose, or the depositor's remark. Unless noted, calls come from the whole dose curve; as a rule, active = well fitted curve in the direction sought with a large enough effect; inconclusive = small, poorly fitted or top-dose-only effect, or another doubt; inactive = no such curve, though single readings can be large; an effect the other way counts as inactive or inconclusive.

Second line of a record: PTHR1 agonist | PINK1 expr mod | ALOX12 inh | miR-21 reporter | ERG-DNA inh | Giardia kill
> COc1ccc(-c2c(C(F)(F)F)[nH]n3c(=O)cc(-c4ccccc4)nc23)cc1
  -35.9% | ? | 11.2µM* | 0.0% | -0.3% | -21.4
> Cc1[nH]n2c(=O)cc(-c3ccc(Cl)cc3)nc2c1-c1ccccc1
  -32.1% | 8.6% | 39.8µM* | ? | 1.7% | .
> Cc1[nH]n2c(=O)cc(-c3ccc([N+](=O)[O-])cc3)nc2c1-c1ccccc1
  -9.5% | -1.4% | ? | . | 0.0% | 0.4
> N#Cc1ccc(/C=N/Nc2ccccc2Cl)cc1
  . | . | 10µM* | . | . | .
> N#Cc1ccc(/C=N/Nc2cccc(Cl)c2)cc1
  . | . | 2.51µM* | . | . | .
> Fc1ccc(/C=N\Nc2cccc(F)c2)cc1
  i | 0.9% | 14.0% | 0.4% | 9.0% | 0.7
> Clc1ccccc1NN=Cc1ccccn1
  -11.8% | 5.6% | ? | . | . | .
> Fc1ccc(/C=N/Nc2cccc(Cl)c2)cc1F
  . | . | 3.98µM* | . | . | .
> CC1(C)[N+]([O-])=C2C(=[N+]([O-])C1(C)C)c1ccccc1/C2=N\O
  -22.1%[57.5 µM] | 0.1% | ? | -4.1% | -4.7% | -98.3*
> COc1cccc(NC(=O)NCc2ccc3c(c2)CCN3C(=O)c2ccccc2)c1
  i | 0.5% | -25.7% | 13.8% | 4.1% | .
> CCN1CCN(c2ncc3c(n2)CCN(Cc2ccc(Br)s2)C3)CC1
  14.0% | 5.6% | ? | 12.2% | 3.7% | .
> CCN1CCN(c2ncc3c(n2)CCN(Cc2cc(Br)cs2)C3)CC1
  -28.4% | 2.3% | 11.2µM* | 7.6% | 0.4% | .
> CCN(CC(=O)Nc1ccc(NC(C)=O)cc1)C(=O)c1cc2ccccc2oc1=O
  i | -2.0% | -50.0% | . | -3.8% | -9.8
> CCCN(CC(=O)Nc1ccccc1C)C(=O)c1cc2ccccc2oc1=O
  i | 0.7% | 12.6µM*! | . | . | .
> C=CCn1c(NCCOC)nc2c1c(=O)n(C)c(=O)n2C
  i | 1.0% | 0.0% | -1.9% | 10.4% | -7.6
> Nc1nnc(CC(=O)N/N=C/c2cccc([N+](=O)[O-])c2)s1
  -20.9% | -1.1% | -2.7% | -1.2% | -4.4% | -10.1
> Nc1nnc(CC(=O)N/N=C/c2cc([N+](=O)[O-])cc(Br)c2O)s1
  -2.9% | 3.0% | 15.8µM* | 1.0% | 1.4% | 1.9
> COc1ccc(-c2cn(-c3ccc(C)c(C)c3)c(=S)[nH]2)cc1OC
  -23.3% | -0.9% | 28.2µM* | -3.3% | 10.3% | -21.3
> COc1ccc(-c2cn(-c3ccc(C)c(Cl)c3)c(=S)[nH]2)cc1OC
  -88.8% | 4.9% | ? | 6.7% | 4.0% | -10.6
> COc1cccc(-n2cc(-c3ccc(F)cc3)[nH]c2=S)c1
  -11.2% | -2.1% | 22.4µM* | -57.8% | -8.8% | -20.0

Grouped by structure: the compounds so far with a carbonyl joined to an NH by a bond outside any ring
Second line of a record: PTHR1 agonist | PINK1 expr mod | ALOX12 inh | miR-21 reporter | ERG-DNA inh | Giardia kill
> COc1cccc(NC(=O)NCc2ccc3c(c2)CCN3C(=O)c2ccccc2)c1
  i | 0.5% | -25.7% | 13.8% | 4.1% | .
> CCN(CC(=O)Nc1ccc(NC(C)=O)cc1)C(=O)c1cc2ccccc2oc1=O
  i | -2.0% | -50.0% | . | -3.8% | -9.8
> CCCN(CC(=O)Nc1ccccc1C)C(=O)c1cc2ccccc2oc1=O
  i | 0.7% | 12.6µM*! | . | . | .
> Nc1nnc(CC(=O)N/N=C/c2cccc([N+](=O)[O-])c2)s1
  -20.9% | -1.1% | -2.7% | -1.2% | -4.4% | -10.1
> Nc1nnc(CC(=O)N/N=C/c2cc([N+](=O)[O-])cc(Br)c2O)s1
  -2.9% | 3.0% | 15.8µM* | 1.0% | 1.4% | 1.9

Following part
Second line of a record: PTHR1 agonist | PINK1 expr mod | ALOX12 inh | miR-21 reporter | ERG-DNA inh | Giardia kill
> COc1ccc(-n2cc(-c3ccc(Cl)cc3)[nH]c2=S)cc1
  -1.8% | 6.4% | -27.7% | -24.7% | 0.2% | 14.9
> C=CCNc1nc2c(c(=O)n(C)c(=O)n2C)n1CCC(C)C
  . | . | 38.3% | . | . | .
> Nc1nc(-c2cccc(Br)c2)cs1
  5.62µM* | ? | ? | -47.7% | 5.9% | 10.1
> Nc1nc(-c2ccc(F)cc2)cs1
  i | 0.8% | -9.6% | -34.0% | 4.2% | -9.2
> Nc1nc(-c2ccc(Br)cc2)cs1
  i | -1.5% | 44.7µM* | -36.8% | 3.4% | 7.8
> OCC(O)c1cc2n(n1)CCN(Cc1ccccc1Cn1cccn1)C2 (stereo not given)
  . | . | -2.5% | . | . | .
> COc1ccc([C@H](C)NC(=O)c2c(C)noc2-c2ccccc2C)cc1
  . | . | 16.1% | . | . | .
> CCOc1ccc(N2C(=O)c3ccccc3NC2(C)CC)cc1 (stereo not given)
  -34.5% | 1.8% | 130.9% | . | 10.3% | -15.8
> CCC1(C)Nc2ccccc2C(=O)N1O (stereo not given)
  -9.1%[57.5 µM] | -0.8% | 0.631µM* | 11.9% | 1.5% | 9.8
> COc1ccc(-c2coc3cc(OC(C)=O)ccc3c2=S)cc1
  -17.5% | 17.8µM* | ? | . | 2.4% | -28.2
> COc1ccc(-c2coc3cc(OC(=O)C(C)C)ccc3c2=O)cc1
  . | . | 63.3% | . | . | .
> COc1cc(CNC2CCCCCCC2)ccc1OCC(N)=O
  -21.3% | -1.0% | 30.9% | -5.6% | -8.4% | 5.6
> Cc1cccc(C(=O)OCC(=O)N2CCCC2=O)c1[N+](=O)[O-]
  -2.1% | 0.2% | 17.4% | . | -0.6% | 7.1
> Cc1ccc(S(=O)(=O)Nc2ccc(Br)cc2/C=N/n2cnnc2)cc1
  4.4%[57.5 µM] | . | 44.7µM* | ? | . | 20.2
> COc1ccc(F)cc1CN1CCc2[nH]cnc2C1c1cccc(C#N)c1 (stereo not given)
  . | . | 18.7% | . | . | .
> c1ccc(OCc2nn3c(CN4CCOCC4)nnc3s2)cc1
  . | . | 10µM* | . | . | .
> c1ccc(OCc2nnc3sc(-c4ccccc4)nn23)cc1
  . | . | 8.91µM* | . | . | .
> CC(C)(C)c1ccc(OCc2nn3c(CN4CCCCC4)nnc3s2)cc1
  . | . | -24.8% | . | . | .
> c1ccc(OCc2nnc3sc(-c4cccs4)nn23)cc1
  i | 1.8% | ? | -25.9% | -6.7% | 2.3
> N#CC1CCCc2c1[nH]c1ccccc21 (stereo not given)
  . | . | 54.5% | . | . | .
> COCCCN1CC(=O)N2C(c3ccc(OC)c(OC)c3)c3[nH]c4ccccc4c3C[C@H]2C1=O (stereo not given in full)
  i | 0.9% | 0.0% | -8.7% | 9.1% | 11.1
> Cc1ccc(NC(=O)CN(C)C(=O)c2cc(-c3ccco3)nc3ccccc23)cc1
  -17.7% | 0.3% | 7.08µM* | . | 4.2% | 2.9
> CN(CC(=O)Nc1ccc(F)cc1)C(=O)c1cc(-c2ccco2)nc2ccccc12
  -4.7% | -3.2% | 14.1µM* | . | -26.9% | 44.6
> COc1cccc(NC(=O)CN(C)C(=O)c2cc(-c3ccco3)nc3ccccc23)c1
  i | 0.2% | ? | . | -1.5% | -1.8
> Cc1ccc(N(C)C(=O)c2cc(-c3ccco3)nc3ccccc23)cc1
  . | . | 35.5µM* | . | . | .
> COc1ccc(-c2nnc3ccc(NCC(C)C)nn23)nc1
  . | . | 10.9%[176 µM] | . | . | .
> CCc1nn2c(=O)cc(COC(=O)CNC(=O)COc3ccc(C)cc3)nc2s1
  i | 1.8% | -14.9% | -3.9% | -0.6% | .
> C[n+]1ccc(/C=C/c2cc[n+](C)c3ccccc23)c2ccccc21
  . | 3.98µM* | . | . | . | .
> CN1C=C/C(=C\c2cc[n+](C)c3ccccc23)c2ccccc21
  -69.9% | 5.01µM* | ? | ? | 31.3% | -1.5
> COc1ccc(/C=C/c2cc[n+](C)c3ccccc23)cc1OC
  . | 2.3% | . | . | . | .
> CC(C1SC(=S)NC1=O)C1SC(=S)NC1=O (stereo not given)
  i | 2.1% | 12.6µM* | . | . | .
> COc1ccc(CCN2C(=O)N(c3ccccc3)C(=O)C2CC(=O)Nc2ccccc2)cc1 (stereo not given)
  i | 0.7% | 1.9% | 6.6% | 0.8% | .
> Fc1cccc(NC(=S)Nc2cccc3ccccc23)c1
  -9.4% | 0.7% | ? | 3.3% | -2.4% | 11.0

Source: PubChem (National Center for Advancing Translational Sciences (NCATS))
